From PubChem BioAssay AID1671193 (National Center for Advancing Translational Sciences (NCATS), 2021)
Hit rate of the full screen: of about 150,000 compounds, about 180 (0.12%) were called active. The source calls these results inconclusive, neither active nor inactive. The call rests on the fitted dose curve; in most records, active means well fitted cell-killing curve with a large enough effect; inconclusive means small, poorly fitted or top-dose-only effect, or effect the other way; inactive means flat fitted curve, though single readings scatter.

assay: GF-AFC viability counterscreen for inhibitors of alpha-synuclein gene (SNCA) expression; details: HEK-293-SNCA-luc viability, GF-AFC fluorescence, 24 h; further: nearly all actives have a fitted effect of over 30% in size
Source text: Assay Submitter (PI): Daniel R. Scoles Ph.D.
Department of Neurology, University of Utah, Salt Lake City, Utah
Accumulation of alpha-synuclein is a main underlying pathological feature of Parkinson's disease (PD) and alpha-synucleinopathies, for which lowering expression of the alpha-synuclein gene (SNCA) is a potential therapeutic avenue. Using a cell-based luciferase reporter of SNCA expression we performed a quantitative high throughput screen (qHTS) of 155,885 compounds in dose response. The screening assay was generated using genome editing to insert the luciferase gene downstream and in frame of the SNCA gene in HEK-293 cells (1). A viability counterscreen using GF-AFC was used to eliminate cytotoxic and false positive compounds. […]
Described herein are the results of the GF-AFC viability counterscreen for SNCA inhibitors; inactivity (no decrease in fluorescence signal, not cytotoxic) is the desired output for this assay. […]
7; Detector; Fluorescence; Measure fluorescence with ViewLux microplate reader (PerkinElmer) equipped with 405/10 excitation and 540/25 emission filters. […]
10; Detector; Luminescence; Measure luminescence with ViewLux microplate reader (PerkinElmer) equipped with clear filters. […]
10; Signals were analyzed, and dose-response curves were fit using the Hill equation. […]
Potency means the concentration at half of the fitted maximal effect.

Row | Structure (SMILES) | Potency
1 | CCNC(C)Cc1ccc2c(c1)OCO2 (stereo unspecified) | inconclusive: 17.8 µM
